Measurements reported in patent US20250177353A1 (priority 2021, published 2025).

Legend:
[1] = Phase 2a trial: glycated albumin; conditions: 150, 300, 450 mg QD, 61 days (p<0.0001, high dose)
[2] = MAD study: systolic and diastolic blood pressure
[3] = system: mouse model of NASH (DIAMOND™ mice); experiment: Mouse model of NASH (DIAMOND mice), oral administration
[4] = Single-dose tolerability and repeat-dose toxicity, rats; conditions: up to 63-days
[5] = Nonclinical PK of Compound 1 and 2,4-dinitrophenol after oral administration

With Cn1c(COc2ccc([N+](=O)[O-])cc2[N+](=O)[O-])cnc1[N+](=O)[O-] the glycated albumin [1] was “Dose dependent reduction”, the systolic blood pressure ([2]; all three dose levels (FIG. 10)) was “reduces” and the diastolic blood pressure ([2]; all three dose levels (FIG. 11)) was “reduces”. The “dose level demonstrating efficacy” value [3] was 5 mg/kg/day, the well tolerated dose [4] was no more than 120 mg/kg/day and the “AUC/Cmax ratios for 2,4-dinitrophenol versus administration of 2,4-dinitrophenol directly” value ([5]; oral Compound 1) was “significantly higher”. For the same compound, the “Tmax for 2,4-dinitrophenol versus direct oral administration of 2,4-dinitrophenol” value ([5]; oral Compound 1) was “substantially delayed” and the absorption and conversion ([5]; oral, all species (mice, rats, dogs)) was “rapidly absorbed with conversion to 2,4-dinitrophenol”.
